Results reported in patent US20020160986A1, “Compounds having activity as inhibitors of cytochrome P450RAI” (priority 2000, published 2002).

The chains behind the UniProt entries cited, without tags or fusion partners.
UniProt P10826, whole entry, species assumed: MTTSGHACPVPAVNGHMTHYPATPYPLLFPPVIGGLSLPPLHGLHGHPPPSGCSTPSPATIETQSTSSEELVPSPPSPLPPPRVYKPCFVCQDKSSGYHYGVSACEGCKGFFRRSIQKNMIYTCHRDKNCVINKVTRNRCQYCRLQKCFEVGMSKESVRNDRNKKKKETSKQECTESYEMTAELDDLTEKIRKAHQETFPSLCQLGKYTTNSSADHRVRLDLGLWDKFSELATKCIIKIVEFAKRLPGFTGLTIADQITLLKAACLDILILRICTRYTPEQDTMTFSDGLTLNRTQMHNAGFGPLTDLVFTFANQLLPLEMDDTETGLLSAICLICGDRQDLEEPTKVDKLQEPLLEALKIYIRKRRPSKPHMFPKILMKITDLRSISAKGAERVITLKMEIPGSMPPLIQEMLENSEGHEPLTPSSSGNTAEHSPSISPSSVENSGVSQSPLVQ

Target: RARβ (Homo sapiens, UniProt P10826)
Assay: ligand binding assay, RARβ
Settings: read-out: RAR β Kd
Description: The results if the ligand binding assay for several preferred compounds of the invention are included in Table 1.

4-[4-(1-Benzylmethylamino-cyclopropyl)-phenylethynyl]-benzoic acid [Compound 116]
Kd: 732 nM
